Test results as given in EP0873133B1, “BIOLOGICALLY ACTIVE COMPOSITION COMPRISING CYCLOSPORINE” (CAMURUS AB, priority 1995, dated 2002).

Settings: rat, in vivo

## DDAVP
  uptake in the small intestine: not found the high uptake
